Values joined by “and” are separate entries in the source; they are usually repeats but may differ in a detail not shown here. Equal entries are not always repeated.
Molecular target: human μ-opioid receptor (OPRM1) (Homo sapiens, UniProt P35372)
Experiment: forskolin-induced cAMP accumulation assay, MOR antagonist
Conditions: CHO-K1 human MOR, versus EC90 of fentanyl; for MOR Antagonist %Imax ± SEM: Imax normalized to naltrexone; for IC50: read-out: MOR Antagonist IC50 ± SEM

Chains of the proteins cited; added tags and fusions are not shown.
UniProt P35372, whole entry, looked up: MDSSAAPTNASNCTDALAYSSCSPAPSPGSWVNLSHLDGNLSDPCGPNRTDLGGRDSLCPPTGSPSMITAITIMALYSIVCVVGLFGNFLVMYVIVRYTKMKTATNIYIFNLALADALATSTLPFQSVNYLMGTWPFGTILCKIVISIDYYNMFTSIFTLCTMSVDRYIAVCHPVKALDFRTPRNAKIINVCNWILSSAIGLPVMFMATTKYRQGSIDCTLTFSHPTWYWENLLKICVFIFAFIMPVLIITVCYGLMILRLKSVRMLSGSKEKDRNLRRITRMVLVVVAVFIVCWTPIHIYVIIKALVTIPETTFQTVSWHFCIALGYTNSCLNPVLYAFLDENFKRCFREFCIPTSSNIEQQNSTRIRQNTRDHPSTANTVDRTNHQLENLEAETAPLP

Row | SMILES | MOR Antagonist %Imax ± SEM | IC50 [nM]
1 | N[C@H]1[C@@H]2CCC[C@@]1(c1cccc(O)c1)CCN2CCc1ccccc1 [1S,5S,9R-3, 3-((1S,5S,9R)-9-Amino-2-phenethyl-2-azabicyclo[3.3.1]nonan-5-yl)phenol] | 114.8 ± 5.5% | 709
2 | CN[C@H]1[C@@H]2CCC[C@@]1(c1cccc(O)c1)CCN2CCc1ccccc1 [1S,5S,9R-8, 3-((1S,5S,9R)-9-(Methylamino)-2-phenethyl-2-azabicyclo[3.3.1]nonan-5-yl)phenol] | 136% and 136.5 ± 20.1% | 178
3 | N#CC[C@@H]1[C@H]2CCC[C@]1(c1cccc(O)c1)CCN2CCc1ccccc1 [1R,5S,9S-41, 2-((1R,5S,9S)-5-(3-Hydroxyphenyl)-2-phenethyl-2-azabicyclo[3.3.1]nonan-9-yl)acetonitrile] | 124.7 ± 13.9% | 318
4 | CN[C@@H]1[C@H]2CCC[C@]1(c1cccc(O)c1)CCN2CCc1ccccc1 [1R,5R,9S-10, 3-((1R,5R,9S)-9-(Methylamino)-2-phenethyl-2-azabicyclo[3.3.1]nonan-5-yl)phenol] | – | > 10000

— paper PMC11085448 (Molecules, 2024)
